Assay results reported in US20070254831A1 (published 2007).

Amino acid sequences for entries named in this document (tags omitted). Residues count along the entry.
UniProt P55899, 24-297 limits assumed, chain 1 of 2: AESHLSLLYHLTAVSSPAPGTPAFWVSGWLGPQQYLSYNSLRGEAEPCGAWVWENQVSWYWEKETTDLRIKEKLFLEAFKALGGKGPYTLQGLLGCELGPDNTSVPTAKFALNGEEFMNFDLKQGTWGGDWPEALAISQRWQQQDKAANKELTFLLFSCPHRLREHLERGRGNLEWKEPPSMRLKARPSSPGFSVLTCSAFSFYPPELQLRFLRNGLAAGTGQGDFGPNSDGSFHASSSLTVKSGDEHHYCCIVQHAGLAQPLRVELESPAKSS

Legend:
soluble human FcRn [1] = target: T1, soluble human FcRn (human, UniProt P55899 24-297; P61769 21-119, biotinylated (Sulfo-NHS-LC-Biotin) in the ELISA; amine-coupled to CM5 chip in SPR); assay: ELISA, competitor human IgG
T1 construct: also called shFcRn; biotinylated shFcRn
Method: To allow for mixing, the plate was rocked for 2 minutes, sealed and incubated at 37° C. for 2 hours. […] Once color developed, 100 μl/well of TMB stop solution (KPL, Gaithersburg, Md.) was added and the absorbance was measured at 450 nm.

soluble human FcRn [2] = target: T1, soluble human FcRn; assay: SPR, pH 6
Method: (§1) The following steps were performed to cross-link soluble human or cynomolgus FcRn to the dextran surface of a CM5 sensor chip (Biacore AB, Uppsala, Sweden) by an amine coupling reaction involving 1-ethyl-(3-dimethylaminopropyl)-carbodiimide hydrochloride (EDC) (Biacore AB, Uppsala, Sweden) and N-hydroxysuccinimide (NHS) (Biacore AB, Uppsala, Sweden) as recommended by Biacore (BIAapplications Handbook, version AB, section 4.2, Biacore AB, Uppsala, Sweden). […] Residual sites on the FcRn flow cell were blocked with 1 M ethanolamine hydrochloride pH 8.5 (Biacore AB, Uppsala, Sweden). A control flow cell was blocked with ethanolamine for reference subtraction. For analysis of the monomeric peptides, FcRn was coated to a final density of 4000-5000 response units (RU). For analysis of the peptide dimers, FcRn was coated to a density of 2000-2500 RU. All SPR measurements were performed using a BIACORE 3000 Instrument (Biacore AB Uppsala, Sweden). For measurements done at either pH 6 or pH 7.4, experiments were performed in 50 mM phosphate, 100 mM sodium chloride, 0.01% surfactant P20 (Biacore AB, Uppsala, Sweden).
(§2) The peptide was dissociated from the chip for 2.5 minutes with buffer. […] Sensorgrams were generated and analyzed using BiaEval software version 3.1 (Biacore AB, Uppsala, Sweden). The equilibrium RU observed for each injection was plotted against concentration.

soluble human FcRn [3] = target: T1, soluble human FcRn; assay: SPR, pH 7.4
Method: as §1, §2

Row | IC50 (soluble human FcRn [1]) | Kd (soluble human FcRn [2]) | Kd (soluble human FcRn [3]) | Binder
1 | 13 µM | 2200 nM |  | QRFXTGHXGGLYPCNGP (Pen at 4; 1-napthylalanine at 8; disulfide; C-terminal amide) [Peptide No. 61]
2 | 12 µM |  |  | QRFDTGHFGALYPKNGP (D-Ala at 10; side-chain lactam bridge Asp 4-Lys 14; C-terminal amide) [Peptide No. 105]
3 |  | 1200 nM |  | QRFDTGHFGPLYPKNGP (D-Pro at 10; side-chain lactam bridge Asp 4-Lys 14; C-terminal amide) [Peptide No. 159]
4 |  | 230 nM |  | QRFXTGHFGPLYPCNGP (Pen at 4; D-Pro at 10; disulfide; C-terminal amide) [Peptide No. 40]
5 |  | 410 nM |  | QRFXTGHFFALYPCNGP (Pen at 4; D-Phe at 9; D-Ala at 10; disulfide; C-terminal amide) [Peptide No. 151]
6 | 4.5 µM |  |  | QRFXTGHFAALYPCNGP (Pen at 4; D-Ala at 9 and 10; disulfide; C-terminal amide) [Peptide No. 148]
7 | 31 µM |  |  | QRFXTGHFGGLYPDNGP (Dab at 4; side-chain lactam bridge Dab 4-Asp 14; C-terminal amide) [Peptide No. 81]
8 |  | 2700 nM |  | QRFXTGHWGGLYPCNGP (Pen at 4; disulfide; C-terminal amide) [Peptide No. 95]
9 |  | 2200 nM |  | QRFXTGHFGILYPCNGP (Pen at 4; D-Ile at 10; disulfide; C-terminal amide) [Peptide No. 43]
10 |  | 3300 nM |  | QRFXTGHFPPLYPCNGP (Pen at 4; D-Pro at 9 and 10; disulfide; C-terminal amide) [Peptide No. 152]
11 | 13 µM |  |  | QRFXTGHFGFLYPCNGP (Pen at 4; D-Phe at 10; disulfide; C-terminal amide) [Peptide No. 44]
12 | 22 µM |  |  | QRFXTGHFFPLYPCNGP (Pen at 4; D-Phe at 9 (L-Pro at 10); disulfide; C-terminal amide) [Peptide No. 203]
13 | 13 µM |  | 31 µM | QRFXTGHFGYLYPCNGP (Pen at 4; D-Tyr at 10; disulfide; C-terminal amide) [Peptide No. 45]
14 |  | 790 nM | 21 µM | QRFXTGHFPGLYPCNGP (Pen at 4; D-Pro at 9; disulfide; C-terminal amide) [Peptide No. 48]
15 | 3.2 µM | 320 nM |  | QRFXTGHFYGLYPCNGP (Pen at 4; D-Tyr at 9; disulfide; C-terminal amide) [Peptide No. 53]
16 | 3.1 µM |  |  | QRFXTGHFDGLYPCNGP (Pen at 4; D-Asp at 9; disulfide; C-terminal amide) [Peptide No. 47]
17 |  | 410 nM |  | QRFXTGHFHGLYPCNGP (Pen at 4; D-His at 9; disulfide; C-terminal amide) [Peptide No. 50]
18 | 9.4 µM | 2600 nM |  | QRFXTGHFIGLYPCNGP (Pen at 4; D-Ile at 9; disulfide; C-terminal amide) [Peptide No. 51]
19 | 12 µM |  |  | QRFXTGHFGHLYPCNGP (Pen at 4; D-His at 10; disulfide; C-terminal amide) [Peptide No. 42]
20 |  |  | 78 µM | RFCTGHFGGLYPCNGP (disulfide; C-terminal amide) [SEQ ID NO:21]
21 | 1.7 µM |  |  | QRFXTGHXGGLYPCNGP (Pen at 4; 4-MePhe at 8; disulfide; C-terminal amide) [Peptide No. 90]
22 | 1.7 µM |  |  | FXTGHFGPLYPC (Pen at 2; D-Pro at 8; disulfide; C-terminal amide) [Peptide No. 143]
23 | 33 µM |  |  | QRFKTGHFGGLYPENGP (side-chain lactam bridge Lys 4-Glu 14; C-terminal amide) [Peptide No. 73]

Row | IC50 (soluble human FcRn [1]) | Kd (soluble human FcRn [2]) | Kd (soluble human FcRn [3]) | Binder
24 | 33 µM |  |  | AGGGCVTGHFGGIYCNTQGTGGGK (disulfide; C-terminal amide) [SEQ ID NO:7]
25 | 31 µM |  |  | QRFCTGHFGGLYPCN (disulfide; C-terminal amide) [SEQ ID NO:24]
26 |  | 3300 nM |  | RFVTGHFXLYPA (X at 8 = 3-amino-2-oxo-1-piperidine-acetic acid (drawing CHEM-US-00094); linear; C-terminal amide) [Peptide No. 182]
27 | 27 µM |  |  | QRFCTGHFGGLYPC (disulfide; C-terminal amide) [SEQ ID NO:18]
28 | 68 µM | 17000 nM | 150 µM | QRFDTGHFGGLYPXNGP (Dab at 14; side-chain lactam bridge Asp 4-Dab 14; C-terminal amide) [Peptide No. 38]
29 |  | 31000 nM |  | QRFXTGHFGGLXPCNGP (Pen at 4; 4-methoxyPhe at 12; disulfide; C-terminal amide) [Peptide No. 64]
30 | 31 µM | 4500 nM |  | QRFXTGHXGGLYPCNGP (Pen at 4; Cha at 8; disulfide; C-terminal amide) [Peptide No. 93]
31 | 27 µM | 3300 nM | 4.2 µM | RFXTGFFGGLYPC (Pen at 3; Sar at 9; NMeLeu at 10; disulfide; C-terminal amide) [Peptide No. 265]
32 |  |  | 13 µM | RFXTGAFGGLYPC (Pen at 3; Sar at 9; NMeLeu at 10; disulfide; C-terminal amide) [Peptide No. 266]
33 |  |  | 78 µM | AGKIICSPGHFGGMYCQGKGTGGGK (disulfide; C-terminal amide) [SEQ ID NO:8]
34 | 22 µM |  |  | FDTGHFGGLYPKNGP (side-chain lactam bridge Asp 2-Lys 12; C-terminal amide) [Peptide No. 124]
35 |  | 320 nM |  | RFXTGHFXLYPC (Pen at 3; X at 8 = 6,5-bicyclic dipeptide mimic; disulfide; C-terminal amide) [Peptide No. 204]
36 | 16 µM | 2700 nM |  | QRFDTGHFGGLYPXNGP (Orn at 14; side-chain lactam bridge Asp 4-Orn 14; C-terminal amide) [Peptide No. 85]
37 |  | 211000 nM |  | QRFCTGXFGGLYPCNGP (Dab at 7; disulfide; C-terminal amide) [Peptide No. 36]
38 | 33 µM | 9400 nM | 93 µM | AGNSFCRGRPGHFGGCYLFGTGGGK (disulfide; C-terminal amide) [SEQ ID NO:10]
39 |  |  | 120 µM | FCTGHFGGLYPCNGP (disulfide; C-terminal amide) [SEQ ID NO:22]
40 | 9.4 µM |  |  | RFDTGHFGGLYPKNGP (side-chain lactam bridge Asp 3-Lys 13; C-terminal amide) [Peptide No. 125]
41 |  |  | 69 µM | QRFCTGHFGGLYPCNG (disulfide; C-terminal amide) [SEQ ID NO:23]
42 |  | 16000 nM |  | QRFVTGHFGPLYPANGP (D-Pro at 10; linear; C-terminal amide) [Peptide No. 157]
43 |  | 4200 nM |  | QRFVTGHFGPWYPINGP (D-Pro at 10; linear; C-terminal amide) [Peptide No. 190]
44 | 150 µM |  |  | QRFVTGHFGPLYPYNGP (D-Pro at 10; linear; C-terminal amide) [Peptide No. 171]
45 | 150 µM |  |  | QRFVTGHFGPLYPWNGP (D-Pro at 10; linear; C-terminal amide) [Peptide No. 172]
